The chains behind the UniProt entries cited, without tags or fusion partners.
UniProt P49840, whole entry: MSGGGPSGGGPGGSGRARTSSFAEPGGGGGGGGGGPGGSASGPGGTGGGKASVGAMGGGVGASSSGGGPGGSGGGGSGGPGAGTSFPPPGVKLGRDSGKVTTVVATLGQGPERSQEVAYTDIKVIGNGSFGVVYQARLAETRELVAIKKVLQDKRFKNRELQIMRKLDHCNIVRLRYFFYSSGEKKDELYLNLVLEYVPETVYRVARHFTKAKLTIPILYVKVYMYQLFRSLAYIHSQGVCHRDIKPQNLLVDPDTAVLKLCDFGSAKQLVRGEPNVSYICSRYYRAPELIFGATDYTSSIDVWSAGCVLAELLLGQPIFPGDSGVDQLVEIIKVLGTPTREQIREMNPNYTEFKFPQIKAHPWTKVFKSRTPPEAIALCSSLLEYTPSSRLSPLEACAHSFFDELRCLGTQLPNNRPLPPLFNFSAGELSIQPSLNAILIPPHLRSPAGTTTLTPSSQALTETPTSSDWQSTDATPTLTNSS
UniProt P49841, whole entry: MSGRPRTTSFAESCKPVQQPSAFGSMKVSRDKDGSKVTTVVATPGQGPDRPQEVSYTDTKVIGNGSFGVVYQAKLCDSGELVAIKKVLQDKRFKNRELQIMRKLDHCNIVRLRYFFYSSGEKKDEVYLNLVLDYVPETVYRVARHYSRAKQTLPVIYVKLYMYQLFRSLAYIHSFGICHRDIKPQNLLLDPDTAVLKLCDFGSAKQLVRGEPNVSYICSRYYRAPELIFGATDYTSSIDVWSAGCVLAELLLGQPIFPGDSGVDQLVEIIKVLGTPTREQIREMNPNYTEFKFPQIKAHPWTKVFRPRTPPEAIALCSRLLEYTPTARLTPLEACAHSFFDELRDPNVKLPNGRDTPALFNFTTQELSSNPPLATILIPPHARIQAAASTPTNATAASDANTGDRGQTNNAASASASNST

According to patent US8664219B2, “Aminopyrimidines useful as inhibitors of protein kinases” (Vertex Pharmaceuticals Incorporated, priority 2007, dated 2014):

Columns and labels:
GSK3α TYR 279 = GSK3α TYR 279 (Homo sapiens (Human), UniProt P49840); test: GSK-3α p-TYR inhibition assay (western blotting of Jurkat cells); conditions: read-out: GSK3a pTYR 279: IC50, compound incubated o/n, western blot
GSK3β TYR 216 = GSK3β TYR 216 (Homo sapiens (Human), UniProt P49841); test: GSK3β p-TYR inhibition assay (western blotting of Jurkat cells); conditions: read-out: GSK3b pTYR 216: IC50, compound incubated o/n, western blot
[1] = test system: β-catenin dependent TCF/LEF transcriptional activity; test: β-catenin stabilization protocol (β-lactamase reporter assay in Jurkat cells); conditions: read-out: Beta Catenin IC50, 460/530 ratio, 50% of the maximum effect
Source text: GSK-3 phosphorylation of β-catenin targets it to the proteosome for degradation. Inhibition of GSK-3 results in accumulation of β-catenin in the cytosol of cells which through interaction with the transcription factor TCF/LEF translocates to the nucleus and drives the transcription of Wnt-dependent genes. The assay is designed to determine the level of β-catenin dependent TCF/LEF transcriptional activity in a quantitative manner through the use of a β-lactamase reporter assay in Jurkat cells dosed with a compound.
Jurkat β-catenin cells are starved overnight in assay media (1% FBS, 1× Penstrep, RPMI) in the flask. The next day Jurkat β-catenin cells are seeded in 96 well flat bottom plates at a density of 50,000 cells/well in assay media in a volume of 100 ul. The compound is added to the well at a final DMSO concentration of 0.75% and incubated at 37° C. o/n. The next day, 20 uL of 6× CCF4 dye is added to the wells and incubated at room temperature for 1-2 hours. Plates are read on the Cytofluor 4000 series multiwell plate reader and the 460/530 ratio is determined. The GSK-3 IC50 for induction of β-catenin is determined by plotting the 460/530 ratio against the concentration of compound (Log scale) and using the equation of the slope to calculate the point at which the ratio is 50% of the maximum effect.

| IC50 (GSK3α TYR 279) | IC50 (GSK3β TYR 216) | IC50 [1] | SMILES |
| --- | --- | --- | --- |
| 2 nM | 20 nM | 3.32 µM | Cc1cc(Nc2n[nH]c3ncc(F)cc23)nc(C23CC4CC(CC(C4)C2)C3)n1 |
| 3 nM | 83 nM | 3.7 µM | Cc1nc(C2CCCCCC2)nc(Nc2n[nH]c3ncc(F)cc23)c1C |
